Test results taken from ChEMBL document CHEMBL5053557, “Discovery of Novel Dual-Target Inhibitor of Bromodomain-Containing Protein 4/Casein Kinase 2 Inducing Apoptosis and Autophagy-Associated Cell Death for Triple-Negative Breast Cancer Therapy” (J Med Chem, 2021).

Columns and labels:
MDA-MB-468 = assay: Antiproliferative activity against human MDA-MB-468 cells incubated for 24 hrs by MTT assay; assay type: functional, cell-based; settings: MDA-MB-468, 24 h
MDA-MB-231 = assay: cells; settings: Homo sapiens, MDA-MB-231, 24 h

SMILES: Cc1sc2c(c1C)C(c1ccc(Cl)cc1)=N[C@@H](CC(=O)OC(C)(C)C)c1nnc(C)n1-2
- IC50 (MDA-MB-468): 30.2 µM
- IC50 (MDA-MB-231): 29.5 µM
